Sequences of proteins named here, by UniProt entry; tags and fusion partners are left off.
UniProt P31153, whole entry, looked up: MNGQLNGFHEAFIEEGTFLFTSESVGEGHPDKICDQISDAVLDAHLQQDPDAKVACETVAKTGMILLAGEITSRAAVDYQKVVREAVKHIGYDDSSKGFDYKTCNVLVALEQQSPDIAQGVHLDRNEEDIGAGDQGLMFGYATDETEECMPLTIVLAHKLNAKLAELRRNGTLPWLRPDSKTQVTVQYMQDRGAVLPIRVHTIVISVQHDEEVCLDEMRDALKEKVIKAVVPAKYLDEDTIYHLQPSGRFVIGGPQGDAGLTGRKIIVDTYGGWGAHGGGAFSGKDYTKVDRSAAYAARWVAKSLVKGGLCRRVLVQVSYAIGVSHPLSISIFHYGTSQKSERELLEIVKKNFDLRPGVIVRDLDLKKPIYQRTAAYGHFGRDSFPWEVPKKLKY

In ChEMBL document CHEMBL5365425, “Discovery of novel methionine adenosyltransferase 2A (MAT2A) allosteric inhibitors by structure-based virtual screening” (Bioorg Med Chem Lett, 2023):

Molecular target: S-adenosylmethionine synthase isoform type-2 (Homo sapiens, UniProt P31153)

| Structure (SMILES) | deltaT [°C] |
| --- | --- |
| COc1ccc(-c2c3c(cc(C)[n+]2[O-])oc2ccc(OC)cc23)cc1 | 12.3 |
| CCn1ncc2c(C(=O)Nc3ccc4c(c3)ncn4C)cc(C3CC3)nc21 | 6.1 |
| CCn1ncc2c(C(=O)Nc3ccc4nn(C)c(C)c4c3)cc(C3CC3)nc21 | 12.6 |
| CCn1ncc2c(C(=O)Nc3ccc(OC)cc3)cc(C3CC3)nc21 | 10 |
| CCn1ncc2c(C(=O)Nc3ccc4nn(C)cc4c3)cc(C3CC3)nc21 | 14 |
| COc1ccc2oc3cc(C)[n+]([O-])c(-c4ccc(C)cc4)c3c2c1 | 18 |
| CCn1ncc2c(C(=O)Nc3ccc4ncn(C)c4c3)cc(C3CC3)nc21 | 7.6 |
